Experiment: in vivo
Conditions: NMRI, mouse, iv, 3 mg/kg

For `Cc1nn(C)c(C)c1NS(=O)(=O)c1c(Cl)cc(-c2ccnc(N3CCNCC3)c2)cc1Cl`, the Vd was 0.4 L/kg.

— ChEMBL document CHEMBL1949590, “Discovery of a novel class of orally active trypanocidal N-myristoyltransferase inhibitors” (J Med Chem, 2012)
